# Experimental data as given in patent US7901894B2, “Kinase inhibitors” (The Research Foundation of State University of New York, priority 1999, dated 2011).
# Target: pp60^c-src (Homo sapiens, UniProt P12931)
# Assay: src Cellular Mimetic assay (RR-SRC phosphorylation)
smiles,measurement,value
"N#C/C(=C\c1ccc(O)c(O)c1)C(N)=S [Tyrophostin A47, Tyrphostin A47, reference compound]",% Inhibition at 100 μM (std. dev.),43 (+/−3) %
